Experimental data reported in patent publication US8541449B2, “Substituted isoquinolines and isoquinolinones as Rho kinase inhibitors” (Sanofi, priority 2008, dated 2013).

Sequences of proteins named here, by UniProt entry; tags and fusion partners are left off. Residues count along the entry.
UniProt Q13976, 1-686 isoform 2: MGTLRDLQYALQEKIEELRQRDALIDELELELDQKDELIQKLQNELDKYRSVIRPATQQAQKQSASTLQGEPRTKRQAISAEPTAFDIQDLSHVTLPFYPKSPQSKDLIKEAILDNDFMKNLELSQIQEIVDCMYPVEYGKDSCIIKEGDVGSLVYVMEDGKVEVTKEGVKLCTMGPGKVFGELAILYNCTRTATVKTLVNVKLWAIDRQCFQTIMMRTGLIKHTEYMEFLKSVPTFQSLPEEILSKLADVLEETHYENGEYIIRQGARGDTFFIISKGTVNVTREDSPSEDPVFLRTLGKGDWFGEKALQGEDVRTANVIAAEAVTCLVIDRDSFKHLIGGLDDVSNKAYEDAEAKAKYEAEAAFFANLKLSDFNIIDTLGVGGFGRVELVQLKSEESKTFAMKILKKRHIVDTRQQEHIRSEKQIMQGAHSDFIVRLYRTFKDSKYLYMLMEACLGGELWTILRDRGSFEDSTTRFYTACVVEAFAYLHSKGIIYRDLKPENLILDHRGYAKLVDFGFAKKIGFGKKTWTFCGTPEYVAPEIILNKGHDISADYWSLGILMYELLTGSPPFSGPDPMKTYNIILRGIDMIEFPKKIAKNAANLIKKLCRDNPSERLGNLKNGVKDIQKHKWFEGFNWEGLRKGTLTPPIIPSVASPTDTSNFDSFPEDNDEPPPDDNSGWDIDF
UniProt O75116, 11-552 limits assumed: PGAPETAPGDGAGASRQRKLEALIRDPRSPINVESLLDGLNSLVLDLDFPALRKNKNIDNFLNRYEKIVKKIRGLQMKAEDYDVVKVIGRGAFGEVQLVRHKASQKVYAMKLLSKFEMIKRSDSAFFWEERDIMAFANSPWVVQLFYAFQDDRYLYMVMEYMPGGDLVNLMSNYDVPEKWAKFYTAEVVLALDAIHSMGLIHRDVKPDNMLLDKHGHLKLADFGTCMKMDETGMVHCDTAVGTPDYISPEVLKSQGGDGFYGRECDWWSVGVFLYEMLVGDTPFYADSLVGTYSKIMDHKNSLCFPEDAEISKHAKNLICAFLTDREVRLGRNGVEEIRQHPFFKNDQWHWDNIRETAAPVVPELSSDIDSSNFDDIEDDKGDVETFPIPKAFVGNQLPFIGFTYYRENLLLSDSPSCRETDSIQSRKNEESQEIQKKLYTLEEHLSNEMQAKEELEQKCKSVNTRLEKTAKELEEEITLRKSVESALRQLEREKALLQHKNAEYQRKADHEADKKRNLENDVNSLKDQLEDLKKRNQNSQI

Key:
[1] = molecular target: recombinant human PKG1-beta (Homo sapiens, UniProt Q13976); experiment: Determination of Protein Kinase G inhibition (Caliper peptide phosphorylation assay); details: recombinant human PKG1-beta versus ROCK II
recombinant human PKA = recombinant human PKA (Homo sapiens, UniProt P17612); experiment: Determination of Protein Kinase A inhibition (Caliper peptide phosphorylation assay); details: recombinant human PKA versus ROCK II
[2] = molecular target: human recombinant ROCK II (Homo sapiens, UniProt O75116); experiment: Determination of Rho kinase inhibition (Caliper peptide phosphorylation assay); details: 60 min at 32° C., negative decadal logarithm of the IC50

Structure (SMILES) | Selectivity against PKG [1] | Selectivity against PKA (recombinant human PKA) | pIC50 [2]
CCC(N)[C@]1(c2ccc(F)cc2)CC[C@H](Oc2cc3cc[nH]c(=O)c3cc2Cl)CC1 (single isomer, unassigned) | > 1000 | > 1000 | +++++++ (8.0≦pIC50)
CCC(N)[C@]1(c2ccccc2)CC[C@H](Oc2cc3cc[nH]c(=O)c3cc2Cl)CC1 (single isomer, unassigned) [45] | > 100 | > 1000 | +++++++ (8.0≦pIC50)
CCC(N)[C@]1(c2ccccc2)CC[C@H](Oc2cc3cc[nH]c(=O)c3cc2Cl)CC1 (single isomer, unassigned) [46] | > 1000 | > 1000 | +++++++ (8.0≦pIC50)
NC(c1ccc(F)cc1)C1CCC(Oc2cc3cc[nH]c(=O)c3cc2Cl)CC1 (single isomer, unassigned) [51] | > 10 | > 100 | +++++ (6.0≦pIC50<7.0)
NC(c1ccc(F)cc1)C1CCC(Oc2cc3cc[nH]c(=O)c3cc2Cl)CC1 (single isomer, unassigned) [52] | > 300 | > 1000 | +++++++ (8.0≦pIC50)
